In article PMC8310277 (Viruses, 2021):

Key:
[1] = tested on: SARS-CoV-2 spike RBD - hACE2 interaction; assay: SARS-CoV-2 RBD and hACE2 binding assay; design: species or system SARS-CoV-2 / human
[2] = tested on: replication-competent SARS-CoV-2 viruses expressing mNeonGreen; type: cell-based

## CC[C@H](C)[C@@H]1NC(=O)[C@@H]2CSSC[C@@H]3NC(=O)[C@H](Cc4ccccc4)NC(=O)[C@H](C)NC(=O)[C@H](Cc4c[nH]c5ccccc45)NC(=O)[C@H](CC(C)C)NC(=O)[C@H](CCCNC(=N)N)NC(=O)CNC(=O)[C@H](CCC(N)=O)NC(=O)[C@H](Cc4ccc(O)cc4)NC(=O)[C@H]([C@@H](C)CC)NC(=O)[C@H](CSSC[C@H](NC(=O)[C@H](Cc4ccc(O)cc4)NC(=O)[C@@H](NC(=O)[C@H](C)N)CSSC[C@@H](C(=O)O)NC3=O)C(=O)N[C@@H](CCCNC(=N)N)C(=O)N[C@@H]([C@@H](C)CC)C(=O)N3CCC[C@H]3C(=O)N[C@@H](C)C(=O)N2)NC(=O)[C@H]([C@@H](C)O)NC(=O)CNC(=O)[C@H](Cc2ccc(O)cc2)NC(=O)[C@H](CCCNC(=N)N)NC(=O)[C@H](CCCNC(=N)N)NC(=O)[C@H](CCC(=O)O)NC(=O)CNC(=O)[C@H](C)NC1=O [HNP1]
[1]; 16.7 and 50 μg/mL
  effect on hACE2 - spike RBD interaction at high concentrations (in words): slightly promoted the interaction
[1]; biotinylated hACE2 pre-treated with defensin 37 °C 1 h, plate-bound RBD
  interference with interaction between spike RBD and hACE2 (in words): did not find that HNP1 interfered
[2]
  inhibition of replication-competent SARS-CoV-2 infection (in words): suppressed viral infection in a dose-dependent manner
